Reference: ChEMBL document CHEMBL1145861, “Selective protein tyrosine phosphatase 1B inhibitors: targeting the second phosphotyrosine binding site with non-carboxylic acid-containing ligands” (J Med Chem, 2003)

Biological target: T1, Tyrosine-protein phosphatase non-receptor type 1 (Homo sapiens, UniProt P18031)
T1 sequence (P18031 whole entry): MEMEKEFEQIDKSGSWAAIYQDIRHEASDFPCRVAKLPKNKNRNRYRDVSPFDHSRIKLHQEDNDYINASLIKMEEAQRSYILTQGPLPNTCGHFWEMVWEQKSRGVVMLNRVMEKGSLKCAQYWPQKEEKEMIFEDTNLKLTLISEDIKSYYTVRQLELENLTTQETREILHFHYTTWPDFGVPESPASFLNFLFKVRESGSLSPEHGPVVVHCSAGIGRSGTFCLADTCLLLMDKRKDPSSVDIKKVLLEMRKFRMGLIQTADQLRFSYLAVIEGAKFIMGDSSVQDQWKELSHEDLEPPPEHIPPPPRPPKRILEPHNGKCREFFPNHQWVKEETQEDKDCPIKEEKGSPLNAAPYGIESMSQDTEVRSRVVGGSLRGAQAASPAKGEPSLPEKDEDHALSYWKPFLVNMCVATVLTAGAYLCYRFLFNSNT
Assay: Inhibitory activity against Protein-tyrosine phosphatase 1B (PTP 1B) was determined

Ki: 18 nM
Compound: CCc1cc(CC(NC(C)=O)C(=O)NCCCCOc2cccc(O)c2C(=O)OC)ccc1N(C(=O)C(=O)O)c1ccccc1C(=O)O (stereo unspecified)
